The text below walks through data of EP4843984A1, “TARGETING COMPOUND AND USE THEREOF” (dated 2026).

By UniProt entry, the sequences of proteins in these tests, tags left out. Residues count along the entry.
UniProt P06756, 31-992 limits assumed: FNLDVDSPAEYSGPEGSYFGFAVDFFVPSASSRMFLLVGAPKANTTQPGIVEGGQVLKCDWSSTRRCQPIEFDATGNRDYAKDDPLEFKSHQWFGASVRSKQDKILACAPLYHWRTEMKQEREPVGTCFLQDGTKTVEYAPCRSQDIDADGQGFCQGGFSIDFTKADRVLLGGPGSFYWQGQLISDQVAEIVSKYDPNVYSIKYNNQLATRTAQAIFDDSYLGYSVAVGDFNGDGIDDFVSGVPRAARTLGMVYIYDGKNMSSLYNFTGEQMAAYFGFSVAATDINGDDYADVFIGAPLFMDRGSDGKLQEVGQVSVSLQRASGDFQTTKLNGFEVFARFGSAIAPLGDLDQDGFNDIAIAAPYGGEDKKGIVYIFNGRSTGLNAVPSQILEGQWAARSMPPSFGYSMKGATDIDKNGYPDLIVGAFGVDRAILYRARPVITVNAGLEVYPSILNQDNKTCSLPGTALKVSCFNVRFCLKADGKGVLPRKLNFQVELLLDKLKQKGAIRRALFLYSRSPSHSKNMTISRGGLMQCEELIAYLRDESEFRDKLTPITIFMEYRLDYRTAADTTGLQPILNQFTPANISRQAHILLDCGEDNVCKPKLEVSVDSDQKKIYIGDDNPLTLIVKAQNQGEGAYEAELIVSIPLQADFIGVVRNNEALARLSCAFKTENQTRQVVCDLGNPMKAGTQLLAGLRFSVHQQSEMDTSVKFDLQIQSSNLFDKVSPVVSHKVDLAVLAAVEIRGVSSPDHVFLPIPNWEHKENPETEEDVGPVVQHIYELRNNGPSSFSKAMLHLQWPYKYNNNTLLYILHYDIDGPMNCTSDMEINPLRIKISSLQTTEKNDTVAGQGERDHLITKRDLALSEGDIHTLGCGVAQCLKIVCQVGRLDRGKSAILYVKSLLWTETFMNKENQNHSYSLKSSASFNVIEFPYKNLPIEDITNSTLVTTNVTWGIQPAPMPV
UniProt P18564, 22-707 limits assumed: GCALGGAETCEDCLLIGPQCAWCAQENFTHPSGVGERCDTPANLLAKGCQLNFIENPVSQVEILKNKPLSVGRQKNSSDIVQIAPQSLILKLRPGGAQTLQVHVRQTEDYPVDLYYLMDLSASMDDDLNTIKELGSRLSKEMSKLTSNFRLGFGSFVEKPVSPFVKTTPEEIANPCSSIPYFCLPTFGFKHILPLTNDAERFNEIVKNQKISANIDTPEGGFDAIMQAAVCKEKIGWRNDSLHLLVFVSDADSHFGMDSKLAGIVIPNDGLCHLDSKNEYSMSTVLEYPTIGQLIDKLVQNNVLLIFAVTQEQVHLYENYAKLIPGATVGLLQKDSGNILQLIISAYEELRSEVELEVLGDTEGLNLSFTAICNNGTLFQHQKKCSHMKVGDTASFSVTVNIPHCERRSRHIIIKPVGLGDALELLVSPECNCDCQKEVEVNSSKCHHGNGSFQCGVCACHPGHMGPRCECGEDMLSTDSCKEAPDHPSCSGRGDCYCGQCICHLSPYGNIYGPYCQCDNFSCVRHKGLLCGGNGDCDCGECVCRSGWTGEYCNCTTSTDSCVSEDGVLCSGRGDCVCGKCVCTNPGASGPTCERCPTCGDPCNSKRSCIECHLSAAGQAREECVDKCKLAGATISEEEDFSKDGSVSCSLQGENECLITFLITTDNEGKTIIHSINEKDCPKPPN

Structures are written as SMILES.

This assay has as its target integrin αvβ6 protein (Homo sapiens, UniProt P06756+P18564). Kind of assay: ELISA binding assay of αvβ6 ligand (competition with fibronectin). Particulars: coated integrin αvβ6 protein, fibronectin as ligand, luminescence readout. The protocol: The integrin αvβ6 protein (source: Acro Biosystems) was diluted to 5 µg/mL with coating solution, and 25 µL of the protein was added to each well of a 384-well plate. The plate was centrifuged at 1,000 rpm for 1 minute and then left to stand overnight at 4°C. 100 µL of washing solution was added to each well and left to stand for 5 minutes. Then the plate was flicked dry and washed 3 times. 100 µL of blocking solution was added to each well. The plate was centrifuged at 1,000 rpm for 1 minute and then incubated at 25°C for 90 minutes. 100 µL of washing solution was added to each well and left to stand for 5 minutes. Then the plate was flicked dry and washed 3 times. 10 µL of the above compounds at different dilution concentrations was added to each well. The plate was centrifuged at 1,000 rpm for 1 minute and then incubated at 25°C for 10 minutes. 10 µL of fibronectin (source: R&D) was added to each well. The plate was centrifuged at 1,000 rpm for 1 minute and then incubated at 25°C for 60 minutes. 100 µL washing solution was added to each well and left to stand for 5 minutes. Then the plate was flicked dry and washed 3 times. 25 µL of biotinylated anti-fibronectin antibody (source: R&D) was added to each well. The plate was centrifuged at 1,000 rpm for 1 minute and then incubated at 25°C for 60 minutes. 100 µL washing solution was added to each well and left to stand for 5 minutes. Then the plate was flicked dry and washed 3 times. 25 µL of horseradish peroxidase-labeled streptavidin was added to each well. The plate was centrifuged at 1,000 rpm for 1 minute and then incubated at 25°C for 30 minutes. 100 µL of washing solution was added to each well and left to stand for 5 minutes. Then the plate was flicked dry and washed 4 times. 25 µL of ultrasensitive luminescent substrate solution was added to each well. The plate was centrifuged at 1000 rpm for 1 minute and then incubated at 25°C for 5 minutes. The luminescence values were read on a microplate reader. [Table 2]: Binding Activity of Integrin αvβ6 Ligands
By IC50 is commonly meant the concentration at which inhibition is half-maximal. Read a low IC50 as greater potency. For the molecule `Cn1nccc1-c1cccc([C@H](CC(=O)O)NC(=O)CNC(=O)CCCNc2nc(C#N)c[nH]2)c1`, the IC50 came out at 4.42 nM.

For the molecule `Cn1nccc1-c1cc([C@H](CC(=O)O)NC(=O)CNC(=O)CCCNc2nc(C#N)c[nH]2)ccc1OCCOCCOCCOCCOCCN=[N+]=[N-]`, the IC50 is 4.53 nM. This IC50 and that of the molecule before are within 1.5-fold of each other.

`Cn1nccc1-c1cccc([C@H](CC(=O)O)NC(=O)CNC(=O)CCCNc2ncc[nH]2)c1` yielded an IC50 of 2.11 nM.
